Two compounds from PMC6199309, “A therapeutic approach to pantothenate kinase associated neurodegeneration” (Nature Communications, 2018) can be followed below.

Protein sequences, listed by entry. Tags and fused reporters are not part of them. Lines headed by an entry give the natural chain unless they say otherwise; changes in a name come on top.
UniProt Q9H999: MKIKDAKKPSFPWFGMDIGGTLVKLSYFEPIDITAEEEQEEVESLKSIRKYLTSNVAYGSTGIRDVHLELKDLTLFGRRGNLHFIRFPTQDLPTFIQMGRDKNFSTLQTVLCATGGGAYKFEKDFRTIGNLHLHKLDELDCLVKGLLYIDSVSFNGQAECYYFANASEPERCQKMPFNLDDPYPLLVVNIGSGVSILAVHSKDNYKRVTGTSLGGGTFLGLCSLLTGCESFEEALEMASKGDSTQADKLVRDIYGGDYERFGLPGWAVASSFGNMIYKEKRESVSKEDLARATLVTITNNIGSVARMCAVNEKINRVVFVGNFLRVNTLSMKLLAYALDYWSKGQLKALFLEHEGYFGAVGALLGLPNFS

As a reminder, the IC50 is the concentration that gives 50% inhibition. The low end stands for higher potency, the high end for lower potency.

Data set [1] can be described thus: Caco2 permeability. Type of data set: in vitro ADME. The settings on record: human, Caco-2; read-out: Caco2 Permeability Efflux Ratio (B2A/A2B). On the technique in general: Caco-2 monolayers are a common model of the intestinal barrier.
The target of data set [2] is human PANK3 (Homo sapiens, UniProt Q9H999). Description: PANK activity assay (radiochemical, without acetyl-CoA).

For `CC(C)(C)c1ccc(NC(=O)N2CCN(c3ccc(C#N)cn3)CC2)cc1` [PZ-2789, N-(4-(tert-butyl)phenyl)-4-(5-cyanopyridin-2-yl)piperazine-1-carboxamide], the efflux ratio in data set [1] worked out at 0.5. The compound further displayed an IC50 in data set [2] of 0.844 µM.
In turn, `CC(C)c1ccc(CC(=O)N2CCN(c3ccc(C#N)cn3)CC2)cc1` [PZ-2863] gave an IC50 in data set [2] of 0.122 µM. For the same compound, in data set [2] (from PANK3 IC50 and ClogP), the “LipE (pIC50 – ClogP)” value amounted to 3.6.
